Source: patent publication US5064862A, “Anticonvulsant method and formulations” (priority 1990, dated 1991)

Assay: in vivo
Conditions: mouse, ip

## O=C1NC(=O)C(c2ccccc2)(c2ccccc2)N1 [Phenytoin]
  LD50: 23 mg/kg
